Here are results for 90 compounds from PubChem BioAssay AID504634 (The Scripps Research Institute Molecular Screening Center, 2011).

The chains behind the UniProt entries cited, without tags or fusion partners.
UniProt P47898, whole entry, looked up: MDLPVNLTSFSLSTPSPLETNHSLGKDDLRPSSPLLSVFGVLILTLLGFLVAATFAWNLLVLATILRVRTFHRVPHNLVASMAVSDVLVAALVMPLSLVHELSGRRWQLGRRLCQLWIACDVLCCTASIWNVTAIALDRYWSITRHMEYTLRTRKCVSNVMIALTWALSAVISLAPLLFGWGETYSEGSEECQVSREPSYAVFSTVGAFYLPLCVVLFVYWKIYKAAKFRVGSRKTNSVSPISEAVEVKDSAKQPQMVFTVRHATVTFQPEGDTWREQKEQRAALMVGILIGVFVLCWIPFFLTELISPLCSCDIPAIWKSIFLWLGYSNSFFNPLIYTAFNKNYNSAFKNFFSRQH

Each structure is given as a SMILES string. “And” between values parts separate entries of the source, which are not always exact repeats. Equal entries are not always repeated. Only a part is listed here, and it is no random draw. The source made the active and inactive calls. No stated cut-off is given here; in the data, active means inhibition mostly above about 23% (no sharp cut-off); inactive means mostly below about 18%.

The assay concerns the target 5-hydroxytryptamine receptor 5A (Homo sapiens) (UniProt P47898). Nature of the assay: HTR5A inverse agonists in luminescence cell assay, primary screen, counter-screen for OPRM1-OPRD1 heterodimer inverse agonist project, full-deck HTS (AID 504634).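 Further: 0% = cells with DMSO and 100% = no-cell wells with DMSO.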 The conditions noted are these: HTR5A cell line, inverse agonism, at 9.3 µM, stronger effect = higher value.
As for `CC(O)c1nc2ccccc2n1CC(=O)Nc1ccc(F)cc1Cl` (stereo not given), the inhibition was inactive: 20.2%.
Regarding `CN1CCC(N(C)c2nc(-c3ccc([N+](=O)[O-])cc3)nc3ccccc23)CC1`, the inhibition was inactive: 9.45%.
As to `O=C(Nc1ccc(F)cc1)N1CCn2c(nc3ccccc32)C1`, the inhibition is inactive: 6.55%.
The result for `C[C@H](NC(=O)N1CCn2c1nc1ccccc12)C(=O)NCc1ccco1` reads inactive: 2.81%; that for `O=C1Nc2ccccc2C12Nc1ccccc1-c1nc3ccccc3n12` (stereo not given), inactive: -4.67%; that for `CC(NC(=O)[C@H](C)NC(=O)N1CCn2c1nc1ccccc12)c1ccccc1` (stereo not given in full), inactive: -2.62%.
In the case of `Cc1ccccc1NC(=O)Cn1c(=O)n(C)c2ccccc21`, the inhibition was inactive: 4.47%.
For the compound `Cc1ccccc1OCC(O)Cn1c(=N)n(CCN2CCOCC2)c2ccccc21` (stereo not given), the inhibition is inactive: 4.56% and inactive: -20.6%.
Next, `CCN(CC)CCn1c(NCc2ccc3c(c2)OCO3)nc2ccccc21`: inactive: -17.2%.
The result for `O=C(NCc1ccccc1)N1CCn2c(nc3ccccc32)C1` reads inactive: -3.35%.
The result for `Cn1c(=O)c2c(ncn2CC(=O)N/N=C/C(Br)=C/c2ccccc2)n(C)c1=O` reads inactive: -38.4%.
As to `O=[N+]([O-])c1ccc(-c2cc([N+](=O)[O-])c(O)c([N+](=O)[O-])c2)cc1`, the inhibition is inactive: 5.12%.
The result for `Cc1ccc(S(=O)(=O)Nc2ccc3c(c2)nc2n3CCN(Cc3ccccc3)C2)cc1` reads inactive: -37.4%.
In the case of `COc1ccc(NC(=O)N2CCn3c2nc2ccccc23)cc1`, the inhibition is inactive: 0.88%.
Next, `O=[As](O)(c1ccc(O)cc1)c1ccccc1O`: inactive: -3.42%; `C[As](=O)(O)c1cccc(C(=O)O)c1`: inactive: -18.2%.
Next, `CN1CCN(c2nc3c(c(=O)[nH]c(=O)n3C)n2CC(N)=O)CC1`: inactive: -3.4%; `CSc1nc2ccccc2n1CC(=O)Nc1c(C)cccc1C`: inactive: 10.7%.
In the case of `Cc1ccc(SCc2nc3ccccc3n2CC(=O)Nc2c(C)cccc2C)cc1`, the inhibition was inactive: -21.3%.
Next, `CC1c2nc3ccccc3n2C(CC(=O)NCCCN2CCOCC2)C(=O)N1Cc1ccccc1` (stereo not given): inactive: -3.11%; `COc1ccc(CCNC(=O)[C@@H](NC(=O)N2CCn3c2nc2ccccc23)C(C)C)cc1OC`: inactive: -2.06%.
Turning to `O=C(Cn1c(-c2ccccn2)nc2ccccc21)NCCN1CCOCC1`, the inhibition was inactive: -10.8%.
Next, `O=[N+]([O-])c1cc([N+](=O)[O-])c(-c2ccn[nH]2)s1`: inactive: -1.78%; `O=C(Cn1cnc2c(NCc3ccccc3)ncnc21)NCCCc1ccccc1`: inactive: -1.17%; `O=C(Cn1c2[n+](c3ccc(C(F)(F)F)cc31)CCCCC2)Nc1c(F)cccc1F`: inactive: -1.72%.
Next, `COC(=O)[C@H](CC(C)C)NC(=O)Cn1cnc2c(SC)nc(N)nc21`: inactive: -0.04%; `Cn1c(=O)c2c(ncn2CC(=O)Nc2nc(-c3ccccc3Cl)cs2)n(C)c1=O`: inactive: -4%; `O=C(OC1CN2CCC1CC2)c1cccc2[nH]cnc12` (stereo not given): inactive: 1.14%.
The result for `C=C(C)Cn1c(=O)c2c(nc3n2CCN3c2cccc(Cl)c2C)n(C)c1=O` reads inactive: -1.85%.
Consider `CCN(CC)C(=S)SC(NC=O)C(Cl)(Cl)Cl` (stereo not given), for which the inhibition is inactive: 2.5%.
Next, `O=C(Nc1nc2ccccc2n1CCN1CCOCC1)c1cn(-c2ccccc2)nc1-c1ccccc1`: inactive: 11.9%; `COc1cc(NC(=O)Cn2cnc3c(OCc4ccccc4)ncnc32)cc(OC)c1OC`: inactive: -9.67%.
On to `O=C(CCNC(=O)N1CCn2c1nc1ccccc12)NCc1ccc(F)cc1`, for which the inhibition is inactive: 16%.
As for `O=C(Cn1c(C(F)(F)F)nc2ccccc21)N1CCCC1`, the inhibition was inactive: -12%.
Next, `Cc1ccc(-c2csc(NCCn3c(C)nc4cc(C(F)(F)F)ccc43)n2)cc1`: inactive: -5.07%; `Cc1ccc(Cn2nnnc2CN2CCC(n3nnc4cc(C)ccc43)CC2)cc1`: inactive: -0.27%.
`Cn1c(=O)c2c(nc(CN3CCC(Cc4ccccc4)CC3)n2CCN2CCOCC2)n(C)c1=O`: the inhibition was inactive: 10.1%.
In the case of `CC1CCN(C(=O)Cn2cnc3c2c(=O)n(C)c(=O)n3C)c2ccccc2S1` (stereo not given), the inhibition is inactive: 16.4%.
On to `Cc1cccc(CSc2nc3ccncc3n2CC(=O)Nc2cc(C)cc(C)c2)c1`, for which the inhibition was inactive: -24.1%.
Next, `C[C@H](NC(=O)N1CCn2c1nc1ccccc12)C(=O)NC1CC1`: inactive: 7.95%.
Next, `CCC(=O)Nc1cccc(C(=O)/C=C/c2ccc(F)cc2)c1`: inactive: 17.5%; `Cc1ccc(NC(=O)Cn2cnc3c(=O)n(C)c(=O)n(C)c32)c(C)c1`: inactive: -2.36%; `CCOC(=O)CC[C@H](NC(=O)Cn1cnc2c(NCc3ccccc3)ncnc21)C(=O)OCC`: inactive: -10.1%.
Next, `Cc1nc2ccccc2n1CC(=O)NCCN1CCCC1`: inactive: -4.46%; `CC1(C)c2ccccc2N2CCC(=O)NC21/C=C/c1ccco1` (stereo not given): inactive: 6.24%.
`Cc1ccsc1/C=N/NC(=O)Cn1cnc2ccccc21`: the inhibition was inactive: -15.7%.
The result for `ClCCSc1nnc(-c2cccnc2)o1` reads inactive: -1.23%; that for `Cn1c(=O)c2c(ncn2CC(=O)N2CCN(c3cccc(Cl)c3)CC2)n(C)c1=O`, inactive: -2.15%.
The result for `Cc1ccc2c(c1)C1CN(C)CCC1N2C(=O)CCCN1C(=O)c2cccc3cccc(c23)C1=O` (stereo not given) reads inactive: 5.04%.
The result for `Cc1cc(C)c(CN2CCN(C(=O)Cn3cnc4c(NCc5ccccc5)ncnc43)CC2)c(C)c1` reads inactive: -24.3%; that for `CC(C)NC(=O)Cn1c(SCC(=O)c2ccc(F)cc2)nc2ccccc21`, inactive: -19.8%.
Regarding `N=c1n(CCN2CCCCC2)c2ccccc2n1CC(=O)c1cccc([N+](=O)[O-])c1`, the inhibition was inactive: -14.2%.
As to `CCC(=O)Nc1nc2ccccc2n1CCN(CC)CC`, the inhibition is inactive: 12.2%.
The result for `COc1ccccc1NC(=O)N1CCn2c(nc3ccccc32)C1` reads inactive: -25.2%; that for `COC(=O)c1ccc(CNC(=O)Cn2cnc3c(SC)nc(N)nc32)cc1`, inactive: -6.87%.
The result for `CC(C)c1ccc(OP(=O)(Nc2ccccn2)Oc2ccccc2F)cc1` (stereo not given) reads inactive: 11.4%.
Next, `c1csc(CNc2nc3ccccc3n2CCN2CCOCC2)c1`: inactive: -11.2%; `CCC(C(=O)NC1CCCCC1)n1c(SCc2ccccc2F)nc2ccncc21` (stereo not given): inactive: -1.91%.
As for `COC(=O)C1(C)COP(=O)(N2CCCCCC2)OC1` (stereo not given), the inhibition was inactive: 5.88%.
Consider `Oc1ccccc1CNc1nc2ccccc2n1CCN1CCCCC1`, for which the inhibition is inactive: -9.78%.
Next, `Cc1nc2ccccc2n1C1CCN(Cc2nnnn2CCc2ccccc2)CC1`: inactive: -3.73%.
Next, `O=C(Nc1nc2ccccc2n1CCN1CCCC1)c1ccc(Cl)cc1`: inactive: -5.97%.
Next, `CC1c2nc3ccccc3n2C(CC(=O)NCc2ccccn2)C(=O)N1Cc1ccccc1` (stereo not given): inactive: -8.58%; `CC(=O)Nc1ccc(C(=O)CSc2nc3ccccc3n2CC(=O)N2CCCC2)cc1`: inactive: 11%.
On to `Cc1ccc2c(c1)C1CN(C)CCC1N2C(=O)c1cccs1` (stereo not given), for which the inhibition is inactive: -1.9%.
Turning to `Cc1ccc2c(c1)C1CN(C)CCC1N2C(=O)COc1ccc(N(C)C(=O)C(C)(C)C)cc1` (stereo not given), the inhibition was inactive: 5.43%.
Consider `Nc1ncnc2c1ncn2CCN1CCOCC1`, for which the inhibition is inactive: 7.76%.
Next, `CC(C)[C@H](NC(=O)N1CCn2c1nc1ccccc12)C(=O)NC1CCCCC1`: inactive: -25.4%.
Take `CCN(CC)CCNC(=S)N1CCn2c(nc3ccccc32)C1`: the inhibition is inactive: 14.4%.
Consider `COc1ccc(/C=N/c2nc3ccccc3n2CCN2CCCCC2)cc1OC`, for which the inhibition was inactive: 14.2%.
The result for `CC(=O)Nc1ccc(NC(=O)Cn2c(CC(=O)N3CCCC3)nc3ccccc32)cc1` reads inactive: -19.4%; that for `Cc1cc(SC(NC(=O)c2ccccc2)C(Cl)(Cl)Cl)nc(C(C)C)n1` (stereo not given), inactive: -23.2%; that for `CSc1nc(N)nc2c1ncn2CC(=O)NCc1ccccc1`, inactive: -19.9%.
Turning to `CCCN(C(=O)Cn1c(C(F)(F)F)nc2ccccc21)C1CCS(=O)(=O)C1` (stereo not given), the inhibition is inactive: 13.5%.
As to `CC(C)[C@H](NC(=O)N1CCn2c1nc1ccccc12)C(=O)N1CCCCC1`, the inhibition is inactive: -31.1%.
Consider `Cc1ccc(-c2csc(N3CCC[C@@H]3C(=O)NCCn3c(C(F)(F)F)nc4ccccc43)n2)cc1`, for which the inhibition was inactive: -6.37%.
Next, `CCCNC(=O)CC1C(=O)N(Cc2ccccc2)C(C)c2nc3ccccc3n21` (stereo not given): inactive: -11.3%; `COc1ccc(S(=O)(=O)N2CCn3c2nc2ccccc23)cc1`: inactive: -9.45%; `Cc1ccc2c(c1)C1CN(C)CCC1N2C(=O)COc1ccccc1F` (stereo not given): inactive: 7.86%.
The result for `CCOC(=O)Nc1ccc([As](=O)(O)O)c(O)c1` reads inactive: 0.81%.
Next, `Cc1ccc(S(=O)(=O)c2nc(-c3ccccc3Cl)oc2N(C)C2CCN(C)CC2)cc1`: inactive: -6.97%; `Nc1ncnc2c1ncn2CCNCCc1ccccc1`: inactive: -20.1%; `O=C(Cn1c(C(F)(F)F)nc2ccccc21)NCCCN1CCOCC1`: inactive: -13.2%.
For the compound `CCCCC(=O)Nc1nnc(/C=C/c2ccc(OC)cc2)s1`, the inhibition is inactive: -7.05%.
Take `CC(C)C[C@H](NC(=O)N1CCn2c1nc1ccccc12)C(=O)NCCc1ccccc1`: the inhibition is inactive: 17%.
With `Cc1cc(C)cc(N(CC(=O)N2CCn3c2nc2ccccc23)S(=O)(=O)c2c(C)noc2C)c1`, the inhibition is inactive: -29.7%.
Next, `C[C@H](O)[C@@H]1C(=O)N2CCc3ccc(N4CCN(C)CC4)cc3[C@@H]2C[C@@H]1N(C)C(=O)NC1CCCCC1`: inactive: -7.01%.
Turning to `COCC(=O)N(C)[C@H]1C[C@H]2c3cc(-c4ccccc4)ccc3CCN2C(=O)[C@H]1[C@H](C)O`, the inhibition is inactive: 3.56%.
Next, `CC1CCNP(=O)(N(CCCl)CCCl)O1` (stereo not given): inactive: 3.15%; `Cc1ccc(N(CC(=O)N2CCn3c2nc2ccccc23)S(=O)(=O)c2c(C)n[nH]c2C)cc1`: inactive: -20.8%.
